AlphaSeq binding of Ab-14 light chain variants to a spike HR2 peptide

Target peptide (SARS-CoV-2 spike, HR2 region): PDVDLGDISGINAS

The variants keep the heavy chain, the linker and the frameworks of Ab-14 (scFv order VH, three GGGGS repeats, VL).
VH: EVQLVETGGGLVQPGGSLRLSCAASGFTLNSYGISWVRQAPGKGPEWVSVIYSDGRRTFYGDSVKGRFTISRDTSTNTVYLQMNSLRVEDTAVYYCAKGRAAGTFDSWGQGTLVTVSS
VL: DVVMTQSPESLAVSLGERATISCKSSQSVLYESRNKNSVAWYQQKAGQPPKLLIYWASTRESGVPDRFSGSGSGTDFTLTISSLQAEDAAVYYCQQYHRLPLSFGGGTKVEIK

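The parent was found by panning a naive human phage display library on the peptide. Designed CDR sequences, proposed from the first random library and measured here. Their group label is 14L_En_Gibbs (En: ensemble of fine-tuned language models; Gibbs: Gibbs sampling). The assay is AlphaSeq: two haploid yeast populations carry antibody and antigen on their surface. The frequency of each diploid, read from paired DNA barcodes, reflects how well the two displayed proteins bind. Each replicate has its own calibration line, from reference interactions of the BCL2 family. The assay was run in six technical replicates.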

Each variant is given by its three light chain CDRs, as the data file delimits them; those of the parent are KSSQSVLYESRNKNSVA, WASTRES, QQYHRLPLS.
Scale: log10 of Kd in nM, estimated from mating counts; low values are strong binders.
Where no diploid with the target was found in that replicate, the entry reads "ND": below detection, most likely a poor binder, though not proof of it.
The authors' rule: three or more of the six replicates give a measured affinity, fewer mean a poor binder.

{"CDR-L1": "DMTVQFNGASKIQNSVA", "CDR-L2": "HGVEKID", "CDR-L3": "QQYVRLPLA", "log10 Kd, replicates": "0.47 1.18 0.94 1.39 0.92 0.58", "signal with controls": "0/18"}
{"CDR-L1": "MFDQQTMNENDKNNSVA", "CDR-L2": "EVNHLVN", "CDR-L3": "QQYAQLPLI", "log10 Kd, replicates": "1.30 0.44 0.76 0.34 1.00 0.76", "signal with controls": "2/18 (2.44)"}
{"CDR-L1": "HFAKNLTSLASSKQNVA", "CDR-L2": "NASTVMV", "CDR-L3": "QYYNRLPLS", "log10 Kd, replicates": "ND ND ND 3.22 ND ND", "signal with controls": "0/18"}
{"CDR-L1": "ALRGVGYDEQVKHSAIA", "CDR-L2": "DAEHANQ", "CDR-L3": "QQYSMLPLS", "log10 Kd, replicates": "0.73 0.42 0.44 0.31 1.54 1.07", "signal with controls": "0/18"}
{"CDR-L1": "QFARAMYHGGNDNQSIA", "CDR-L2": "DAMTYIK", "CDR-L3": "QQYSRLPLF", "log10 Kd, replicates": "1.93 2.71 2.58 1.91 3.06 2.49", "signal with controls": "0/18"}
{"CDR-L1": "KMNERYEMGENQQKSIA", "CDR-L2": "NGAHLVH", "CDR-L3": "QDYHRLPLG", "log10 Kd, replicates": "0.21 0.17 0.10 0.21 0.24 0.03", "signal with controls": "0/18"}
{"CDR-L1": "NLGGEDFNDTYGMKAVA", "CDR-L2": "DVSEVGE", "CDR-L3": "QHYSRLPLS", "log10 Kd, replicates": "0.80 0.70 0.49 0.43 0.97 1.11", "signal with controls": "2/18 (2.57)"}
{"CDR-L1": "QLEQDQFPMGKGWHSIA", "CDR-L2": "NATTLVA", "CDR-L3": "QQYYYLPLA", "log10 Kd, replicates": "0.47 0.63 0.55 0.29 0.37 0.59", "signal with controls": "1/18 (2.99)"}
{"CDR-L1": "KLMMFMQEIGIMKNNIA", "CDR-L2": "NLEMGAR", "CDR-L3": "QQYAQLPLV", "log10 Kd, replicates": "ND ND ND ND ND ND", "signal with controls": "0/18"}
{"CDR-L1": "KIDENTFHGANRQYNIA", "CDR-L2": "EERTVGA", "CDR-L3": "QQYFRLPII", "log10 Kd, replicates": "ND ND ND ND ND 2.10", "signal with controls": "0/18"}
{"CDR-L1": "KFNMEVGGQNTNKYAIA", "CDR-L2": "AAHQLEY", "CDR-L3": "QTYHRLPLS", "log10 Kd, replicates": "1.44 1.28 1.21 1.35 1.32 1.74", "signal with controls": "1/18 (3.05)"}
{"CDR-L1": "QLEVFPLQAGSTYQAIA", "CDR-L2": "DASHRTP", "CDR-L3": "QQYSRLPLV", "log10 Kd, replicates": "0.41 0.38 0.26 0.34 0.24 0.49", "signal with controls": "0/18"}
{"CDR-L1": "ILSDHAENQYDREDSIA", "CDR-L2": "DKKERAQ", "CDR-L3": "QQYAHLPLS", "log10 Kd, replicates": "0.96 0.65 0.56 0.54 0.65 0.94", "signal with controls": "0/18"}
{"CDR-L1": "KVAERYEMGENFQSSIA", "CDR-L2": "SGAHKVH", "CDR-L3": "QQYYRLPLG", "log10 Kd, replicates": "1.24 0.83 1.38 0.83 0.37 1.18", "signal with controls": "1/18 (2.70)"}
{"CDR-L1": "KISFLDYRGSQWHNNIA", "CDR-L2": "EGSQRAE", "CDR-L3": "QQYSRLPLN", "log10 Kd, replicates": "2.15 1.60 1.72 1.89 1.34 1.92", "signal with controls": "1/18 (3.11)"}
{"CDR-L1": "MLALPQKELGYAKKAIA", "CDR-L2": "DGSIRAG", "CDR-L3": "QQYHLLPLS", "log10 Kd, replicates": "0.29 0.13 0.00 -0.03 0.16 0.13", "signal with controls": "0/18"}
{"CDR-L1": "LIKGMVEGQLYWQNAIA", "CDR-L2": "NSEERDR", "CDR-L3": "QQYNHLPLS", "log10 Kd, replicates": "1.69 2.23 1.55 ND 1.66 1.92", "signal with controls": "0/18"}
{"CDR-L1": "MIEEGQLGENKNSSNIA", "CDR-L2": "SQDQKTD", "CDR-L3": "QQYQRLPLI", "log10 Kd, replicates": "ND 1.25 ND ND 1.93 2.14", "signal with controls": "2/18 (1.82)"}
{"CDR-L1": "NVKAMLNMWARDIHNVA", "CDR-L2": "HADERAV", "CDR-L3": "QQYSRLPLG", "log10 Kd, replicates": "1.03 0.77 1.08 0.58 0.63 0.82", "signal with controls": "0/18"}
{"CDR-L1": "QVQAFHEHEKDQNQAMA", "CDR-L2": "EASMRDA", "CDR-L3": "QQYERLPLS", "log10 Kd, replicates": "0.38 0.60 -0.22 -0.06 0.16 -0.12", "signal with controls": "0/18"}
{"CDR-L1": "AFSESANYGQRDSNAIA", "CDR-L2": "GADVVEK", "CDR-L3": "QQYWRLPLT", "log10 Kd, replicates": "0.37 0.01 0.18 0.05 -0.01 0.11", "signal with controls": "2/18 (2.26)"}
{"CDR-L1": "KIQHKTYFENIGEYSVA", "CDR-L2": "DANTSVD", "CDR-L3": "QYYFRLPLS", "log10 Kd, replicates": "1.31 0.81 1.18 1.28 1.53 3.01", "signal with controls": "0/18"}
{"CDR-L1": "ALTAQNLQNMDNLNSIA", "CDR-L2": "EQNQTQE", "CDR-L3": "QQYFRLPFA", "log10 Kd, replicates": "0.75 0.79 0.75 0.91 1.00 0.99", "signal with controls": "4/18 (2.52)"}
{"CDR-L1": "HMLYQFNTGSQRVNNVA", "CDR-L2": "EGATVLD", "CDR-L3": "QQYFRLPIT", "log10 Kd, replicates": "1.50 1.70 1.55 1.56 1.19 1.71", "signal with controls": "2/18 (3.18)"}
{"CDR-L1": "HMHTIMYTENIGENSIA", "CDR-L2": "DANLHVD", "CDR-L3": "QQYFRLPIS", "log10 Kd, replicates": "1.28 1.81 1.19 0.94 1.11 2.33", "signal with controls": "0/18"}
{"CDR-L1": "MLPESMPQQIDNQNPVA", "CDR-L2": "GAQHTAV", "CDR-L3": "QQYDRLPLT", "log10 Kd, replicates": "0.80 0.49 1.05 0.89 1.05 1.09", "signal with controls": "1/18 (2.14)"}
{"CDR-L1": "MMGMTVTNQSNEITNVA", "CDR-L2": "DMNERFA", "CDR-L3": "QQYFQLPLS", "log10 Kd, replicates": "0.38 0.10 0.18 -0.20 0.48 0.44", "signal with controls": "2/18 (1.87)"}
{"CDR-L1": "MITEGQLGENKNSSNIA", "CDR-L2": "SQNIKTD", "CDR-L3": "QQYQRLPLT", "log10 Kd, replicates": "0.85 0.44 0.33 0.81 0.22 0.88", "signal with controls": "2/18 (2.57)"}
{"CDR-L1": "QLDTQLQYMDANKNSVA", "CDR-L2": "EMTEETT", "CDR-L3": "QQYHRLPLE", "log10 Kd, replicates": "ND ND ND ND ND ND", "signal with controls": "0/18"}
{"CDR-L1": "SLDSAVAYDLQNKKNIA", "CDR-L2": "EETRVDR", "CDR-L3": "QQYAHLPLM", "log10 Kd, replicates": "0.23 0.24 0.66 0.07 0.60 0.64", "signal with controls": "0/18"}
{"CDR-L1": "MVLKEDFQEYAAKNAVA", "CDR-L2": "NAAEKET", "CDR-L3": "QHYARLPLV", "log10 Kd, replicates": "1.22 0.54 1.39 0.74 1.03 1.36", "signal with controls": "1/18 (2.31)"}

Excerpt, the first 4 entries:

{"CDR-L1": "DMTVQFNGASKIQNSVA", "CDR-L2": "HGVEKID", "CDR-L3": "QQYVRLPLA", "log10 Kd, replicates": "0.47 1.18 0.94 1.39 0.92 0.58", "signal with controls": "0/18"}
{"CDR-L1": "MFDQQTMNENDKNNSVA", "CDR-L2": "EVNHLVN", "CDR-L3": "QQYAQLPLI", "log10 Kd, replicates": "1.30 0.44 0.76 0.34 1.00 0.76", "signal with controls": "2/18 (2.44)"}
{"CDR-L1": "HFAKNLTSLASSKQNVA", "CDR-L2": "NASTVMV", "CDR-L3": "QYYNRLPLS", "log10 Kd, replicates": "ND ND ND 3.22 ND ND", "signal with controls": "0/18"}
{"CDR-L1": "ALRGVGYDEQVKHSAIA", "CDR-L2": "DAEHANQ", "CDR-L3": "QQYSMLPLS", "log10 Kd, replicates": "0.73 0.42 0.44 0.31 1.54 1.07", "signal with controls": "0/18"}

Nonspecific signal, from three strains lacking the peptide, appeared in 4% of pairings of all light chain designs, centred on 2.64 (5% of these signals below 1.59); values are not corrected for it. The control count says in how many pairings with the empty strains this scFv gave a signal, with their mean in brackets.
The parent sequence was in this pool as ten entries: three were never detected, three once, and four in most replicates, with averages from 0.34 to 2.37.
Values of this round are not directly comparable with the first-round values of the same sequences.

The measurements come from Li et al. 2023 (doi:10.1038/s41467-023-39022-2) through the FLAb antibody collection.